Data on one molecule can be found in the SangsterLogP compilation.

The series in a line: method code SF-TN, from DOI: 10.3891/acta.chem.scand.05-0774.

In general, logP refers to a log measure of how a compound divides between an organic and an aqueous phase. As for `CC(O)C(=O)O` (stereo unspecified), the logP is -0.62.
